Reference: ChEMBL document CHEMBL1155418, “Synthesis and structure-activity relationships of N3-pyridylpyrazinones as corticotropin-releasing factor-1 (CRF1) receptor antagonists” (Bioorg Med Chem Lett, 2010)

Experiments:
Rattus norvegicus = species on record: Rattus norvegicus; test: Metabolic stability in rat liver microsomes assessed as compound remaining after 10 mins
Homo sapiens = species on record: Homo sapiens; test: Metabolic stability in human liver microsomes assessed as compound remaining after 10 mins

| Structure (SMILES) | remaining at 10 min (Rattus norvegicus) [%] | remaining at 10 min (Homo sapiens) [%] |
| --- | --- | --- |
| COC[C@H](C1CC1)n1cc(Cl)nc(Nc2c(C)cc(OC(F)F)nc2C)c1=O | 5 | 74 |
| COc1ccc(Nc2nc(Cl)cn([C@H](C)C3CC3)c2=O)c(C(F)(F)F)n1 | 65 | 96 |
| COc1nc(C(F)(F)F)c(Nc2nc(Cl)cn([C@H](C)C3CC3)c2=O)cc1C | 77 | 67 |
| COC[C@H](C1CC1)n1cc(Cl)nc(Nc2cc(C)c(OC(F)F)nc2C)c1=O | 89 | 93 |

Other lines, results leading:

| remaining at 10 min (Rattus norvegicus) [%] | remaining at 10 min (Homo sapiens) [%] | Structure (SMILES) |
| --- | --- | --- |
| 52 | 89 | COC[C@H](C1CC1)n1cc(Cl)nc(Nc2ccc(OC(F)F)nc2C)c1=O |
| 29 | 98 | COC[C@@H](C1CC1)n1cc(Cl)nc(Nc2ccc(OC(F)F)nc2C)c1=O |
| 74 | 97 | Cc1nc(OC(F)F)ccc1Nc1nc(Cl)cn([C@H](C)C2CC2)c1=O |
